{"source": "patent US4638009A", "about": "“Derivatives of 3-pyrrolidinopropiophenone and a process for preparation thereof” (Hokuriku Pharmaceutical Co., Ltd., priority 1984, dated 1987)", "assay": "in vivo", "details": "mouse, oral, deaths within 7 days, Probit method, n=5 per group", "experimental": "Male ddY mice 5 weeks old were used with 5 animals at a group. The compounds were administrated orally with each dosage. LD50 was determined by the Probit method from dead animals dying within 7 days.", "data": [{"smiles": "CCc1ccc(C(=O)C(C)CN2CCCC2)cc1", "note": "(stereo not shown) [Compound 2, 4'-Ethyl-2-methyl-3-pyrrolidinopropiophenone]", "values": [{"measurement": "LD50 at 168 h", "result": 425, "unit": "mg/kg"}]}]}
